Laboratory results: patent publication US9045389B2, “Biphenyl derivatives useful as glucagon receptor antagonists” (Janssen Pharmaceutica NV, priority 2011, dated 2015)

The chains behind the UniProt entries cited, without tags or fusion partners. Residues count along the entry.
UniProt P47871, 26-477: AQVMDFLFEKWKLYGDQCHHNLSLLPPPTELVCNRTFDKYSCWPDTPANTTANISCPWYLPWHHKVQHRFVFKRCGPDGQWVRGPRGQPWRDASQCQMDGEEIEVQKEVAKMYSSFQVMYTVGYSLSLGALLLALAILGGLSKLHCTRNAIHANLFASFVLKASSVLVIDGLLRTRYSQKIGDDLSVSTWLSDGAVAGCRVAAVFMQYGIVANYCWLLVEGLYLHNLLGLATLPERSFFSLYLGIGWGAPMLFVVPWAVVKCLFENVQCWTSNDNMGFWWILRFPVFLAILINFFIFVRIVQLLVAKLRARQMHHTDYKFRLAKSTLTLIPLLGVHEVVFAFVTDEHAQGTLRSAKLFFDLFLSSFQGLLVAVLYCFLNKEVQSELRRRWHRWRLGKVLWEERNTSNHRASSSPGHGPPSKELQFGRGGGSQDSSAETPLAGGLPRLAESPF

Assays:
human GCGR = human GCGR (Homo sapiens (Human), UniProt P47871); assay: Cellular functional assay, cAMP readout: glucagon stimulated cAMP in HEK293 cells expressing human GCGR (LANCE TR-FRET); assay type: cell-based
Method: IC50 Values in Cellular Functional Assays: cAMP Readout
Full-length human GCGR (Accession Number: NM000160) subcloned into pcDNA3.1 was stably transfected into HEK293 cells (hGluc-1 HEK) and maintained under G418 selection (500 μg/mL). Cell cultures were maintained in DMEM/F12 media supplemented with 10% FBS and 1% GlutaMax. Glucagon stimulated cAMP was quantified using LANCE technology as per manufacturer instructions. On the day of the experiment, spent media was removed and cells were washed with Hank's Buffered Saline solution (HBSS) and cells were harvested with non-enzymatic cell dissociation solution, then washed once with HBSS. Cells were re-suspended in stimulation buffer at a concentration of 0.83×10^6 cells/ml and cAMP detection antibody was added. 6 μl/well of this solution was then dispensed in a 384 well plate (cell density 5000 cells/well). Test compound was serially diluted in DMSO and 50 nl were dispensed on top of the cell solution and allowed to incubate for 30 minutes. 6 μl of a 2× glucagon solution (final concentration in assay 100 pM) was then added and the reaction was terminated after 5 minutes with the addition of detection mix. The resulting mixture was incubated, protected from light for 1.5 h. cAMP levels were quantified by TR-FRET in an EnVision instrument against a known standard. IC50's were generated by using a non-linear regression macro driven in Excel and converted to Ki values.

[1] = target: human glucagon receptor (GCGR) (Homo sapiens (Human), UniProt P47871); assay: Inhibition of 125I-glucagon binding to membranes from HEK293 cells expressing the human glucagon receptor (GCGR); conditions: membranes from hGluc-1 HEK293 cells, 125I-glucagon at 0.3 nM, 2 hours at room temperature; IC50 converted to Ki
Method: Inhibition ^125I-Glucagon Binding to Membranes from HEK293 Cells Expressing the Human Glucagon Receptor (GCGR)
Full-length human GCGR (Accession Number: NM000160) subcloned into pcDNA3.1 was stably transfected into HEK293 cells (hGluc-1 HEK) and maintained under G418 selection (500 μg/mL). Cell cultures were maintained in DMEM/F12 media supplemented with 10% FBS and 1% GlutaMax. Membranes were prepared from these cells as follows: cells were harvested from T225 flasks and re-suspended in hypotonic lysis buffer, 50 mM HEPES pH 7.4 supplemented with Complete Protease inhibitors (Boehringer Mannheim, Indianapolis, Ind.). Cells were dounced 20 times on ice and spun at 700×g to remove nuclei and unlysed cells. The resulting pellet was re-suspended in hypotonic lysis buffer and the above step was repeated. Supernatants from the low speed centrifugation were combined and subsequently spun at 100K×g for 1 hr at 4° C. and the resulting pellet was re-suspended in buffer containing 50 mM HEPES pH 7.4 and 10% sucrose and the protein concentration was adjusted at 1 mg/mL as determined in the BCA assay. Membranes were aliquoted and stored at −80° C. The binding assay was performed by a filtration method in a 384 well format. Membranes at a final protein concentration of 6 μg/well were incubated with ^125I-glucagon at 0.3 nM and in the presence of compound for 2 hours at room temperature in a total reaction volume of 40 μL per well. Assay buffer consisted of 50 mM HEPES, pH 7.4, 5 mM MgCl2, 1 mM CaCl2 and 0.2% BSA. 30 μL of the reaction was then transferred to PEI treated filter plates and followed by filter aspiration. Plates were then washed 5× and allowed to dry at room temperature overnight. The next day the bottom of the plate was covered with seal tape and scintillant was added. Total counts retained by the filters were quantified with a Top Count instrument. IC50's were generated by using a non-linear regression macro driven in Excel and converted to K's.

Row | SMILES | Ki (human GCGR) [nM] | Ki [1] [nM]
1 | Cc1cc(C(=O)NCCC(=O)O)ccc1-c1ccccc1CNc1ccc(-c2ccc(Cl)cc2)cc1 [Compound 7, 3-(2′-(((4′-chloro-[1,1′-biphenyl]-4-yl)amino)methyl)-2-methyl-[1,1′-biphenyl]-4-ylcarboxamido)propanoic acid] | 250 | 45
2 | O=C(O)CCNC(=O)c1ccc(-c2cc(Cl)ccc2CNc2ccc(-c3ccc(Cl)cc3)cc2)cc1F [Compound 10, 3-(5′-chloro-2′-(((4′-chloro-[1,1′-biphenyl]-4-yl)amino)methyl)-3-fluoro-[1,1′-biphenyl]-4-ylcarboxamido)propanoic acid] | 650 | 120
3 | O=C(O)CCNC(=O)c1ccc(-c2cc(Cl)ccc2CNc2ccc(-c3ccc(F)cc3)cc2)cc1F [Compound 11, 3-(5′-chloro-3-fluoro-2′-(((4′-fluoro-[1,1′-biphenyl]-4-yl)amino)methyl)-[1,1′-biphenyl]-4-ylcarboxamido)propanoic acid] | 1600 | 240

Further lines, results first:

Row | Ki (human GCGR) [nM] | Ki [1] [nM] | SMILES
4 | 1000 | 240 | O=C(O)CCNC(=O)c1ccc(-c2cc(Cl)ccc2CNc2ccc(-c3ccc(Cl)cc3Cl)cc2)cc1F [Compound 12, 3-(5′-chloro-2′-(((2′,4′-dichloro-[1,1′-biphenyl]-4-yl)amino)methyl)-3-fluoro-[1,1′-biphenyl]-4-ylcarboxamido)propanoic acid]
5 | 170 | 60 | O=C(O)CCNC(=O)c1ccc(-c2ccccc2CNc2ccc(-c3ccc(Cl)cc3)cc2)cc1 [Compound 18, 3-(2′-(((4′-chloro-[1,1′-biphenyl]-4-yl)amino)methyl)-[1,1′-biphenyl]-4-ylcarboxamido)propanoic acid]
